Measurements taken from patent EP4831180A1, “NOVEL KINASE INHIBITOR” (dated 2026).

Chains of the proteins cited; added tags and fusions are not shown. Residues count along the entry.
UniProt Q9UM73, 19-1620 L1196M/G1202R limits assumed: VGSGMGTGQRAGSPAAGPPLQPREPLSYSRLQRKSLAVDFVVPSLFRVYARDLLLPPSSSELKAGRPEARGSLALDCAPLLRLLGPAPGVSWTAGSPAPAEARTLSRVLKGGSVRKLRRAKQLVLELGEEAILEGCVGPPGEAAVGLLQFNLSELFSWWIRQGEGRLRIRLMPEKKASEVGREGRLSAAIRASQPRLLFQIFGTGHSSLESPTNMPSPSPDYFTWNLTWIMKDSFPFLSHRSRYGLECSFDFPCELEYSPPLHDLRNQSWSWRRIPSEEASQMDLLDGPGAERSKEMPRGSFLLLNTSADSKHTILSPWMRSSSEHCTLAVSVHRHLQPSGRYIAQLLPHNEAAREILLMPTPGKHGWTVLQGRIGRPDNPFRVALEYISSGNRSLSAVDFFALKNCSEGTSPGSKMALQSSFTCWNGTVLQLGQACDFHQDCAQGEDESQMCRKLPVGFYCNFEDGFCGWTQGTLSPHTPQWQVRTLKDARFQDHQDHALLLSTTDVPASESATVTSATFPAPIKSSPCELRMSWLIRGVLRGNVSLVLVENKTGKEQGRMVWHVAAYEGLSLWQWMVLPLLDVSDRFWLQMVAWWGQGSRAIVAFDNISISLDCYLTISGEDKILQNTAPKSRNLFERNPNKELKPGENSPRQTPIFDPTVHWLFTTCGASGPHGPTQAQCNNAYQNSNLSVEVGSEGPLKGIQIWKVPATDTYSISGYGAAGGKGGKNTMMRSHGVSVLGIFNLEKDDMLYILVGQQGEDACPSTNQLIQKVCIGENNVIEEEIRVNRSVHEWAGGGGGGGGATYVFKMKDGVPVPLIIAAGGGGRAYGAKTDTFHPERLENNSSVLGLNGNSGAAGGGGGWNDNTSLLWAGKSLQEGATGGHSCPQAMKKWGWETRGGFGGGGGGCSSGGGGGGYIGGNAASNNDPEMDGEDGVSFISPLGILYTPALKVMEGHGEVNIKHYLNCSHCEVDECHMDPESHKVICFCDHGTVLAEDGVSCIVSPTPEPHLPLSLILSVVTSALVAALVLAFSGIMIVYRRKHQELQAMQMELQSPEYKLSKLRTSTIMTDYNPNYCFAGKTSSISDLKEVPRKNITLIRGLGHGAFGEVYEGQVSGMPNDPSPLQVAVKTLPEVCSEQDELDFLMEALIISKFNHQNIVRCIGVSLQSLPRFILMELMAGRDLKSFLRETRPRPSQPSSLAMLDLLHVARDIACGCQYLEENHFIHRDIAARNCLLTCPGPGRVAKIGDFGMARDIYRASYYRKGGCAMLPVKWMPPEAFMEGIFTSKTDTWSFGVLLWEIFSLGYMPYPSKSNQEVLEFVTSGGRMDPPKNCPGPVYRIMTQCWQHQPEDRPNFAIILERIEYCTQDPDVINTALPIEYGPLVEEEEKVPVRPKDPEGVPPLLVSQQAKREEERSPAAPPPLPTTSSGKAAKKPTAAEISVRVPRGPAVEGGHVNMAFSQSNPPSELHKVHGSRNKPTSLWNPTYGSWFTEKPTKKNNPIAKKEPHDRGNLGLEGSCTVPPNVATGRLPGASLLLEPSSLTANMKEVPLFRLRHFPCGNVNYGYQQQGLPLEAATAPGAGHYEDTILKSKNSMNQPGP
UniProt Q9UM73, 19-1620 I1171N/D1203N limits assumed: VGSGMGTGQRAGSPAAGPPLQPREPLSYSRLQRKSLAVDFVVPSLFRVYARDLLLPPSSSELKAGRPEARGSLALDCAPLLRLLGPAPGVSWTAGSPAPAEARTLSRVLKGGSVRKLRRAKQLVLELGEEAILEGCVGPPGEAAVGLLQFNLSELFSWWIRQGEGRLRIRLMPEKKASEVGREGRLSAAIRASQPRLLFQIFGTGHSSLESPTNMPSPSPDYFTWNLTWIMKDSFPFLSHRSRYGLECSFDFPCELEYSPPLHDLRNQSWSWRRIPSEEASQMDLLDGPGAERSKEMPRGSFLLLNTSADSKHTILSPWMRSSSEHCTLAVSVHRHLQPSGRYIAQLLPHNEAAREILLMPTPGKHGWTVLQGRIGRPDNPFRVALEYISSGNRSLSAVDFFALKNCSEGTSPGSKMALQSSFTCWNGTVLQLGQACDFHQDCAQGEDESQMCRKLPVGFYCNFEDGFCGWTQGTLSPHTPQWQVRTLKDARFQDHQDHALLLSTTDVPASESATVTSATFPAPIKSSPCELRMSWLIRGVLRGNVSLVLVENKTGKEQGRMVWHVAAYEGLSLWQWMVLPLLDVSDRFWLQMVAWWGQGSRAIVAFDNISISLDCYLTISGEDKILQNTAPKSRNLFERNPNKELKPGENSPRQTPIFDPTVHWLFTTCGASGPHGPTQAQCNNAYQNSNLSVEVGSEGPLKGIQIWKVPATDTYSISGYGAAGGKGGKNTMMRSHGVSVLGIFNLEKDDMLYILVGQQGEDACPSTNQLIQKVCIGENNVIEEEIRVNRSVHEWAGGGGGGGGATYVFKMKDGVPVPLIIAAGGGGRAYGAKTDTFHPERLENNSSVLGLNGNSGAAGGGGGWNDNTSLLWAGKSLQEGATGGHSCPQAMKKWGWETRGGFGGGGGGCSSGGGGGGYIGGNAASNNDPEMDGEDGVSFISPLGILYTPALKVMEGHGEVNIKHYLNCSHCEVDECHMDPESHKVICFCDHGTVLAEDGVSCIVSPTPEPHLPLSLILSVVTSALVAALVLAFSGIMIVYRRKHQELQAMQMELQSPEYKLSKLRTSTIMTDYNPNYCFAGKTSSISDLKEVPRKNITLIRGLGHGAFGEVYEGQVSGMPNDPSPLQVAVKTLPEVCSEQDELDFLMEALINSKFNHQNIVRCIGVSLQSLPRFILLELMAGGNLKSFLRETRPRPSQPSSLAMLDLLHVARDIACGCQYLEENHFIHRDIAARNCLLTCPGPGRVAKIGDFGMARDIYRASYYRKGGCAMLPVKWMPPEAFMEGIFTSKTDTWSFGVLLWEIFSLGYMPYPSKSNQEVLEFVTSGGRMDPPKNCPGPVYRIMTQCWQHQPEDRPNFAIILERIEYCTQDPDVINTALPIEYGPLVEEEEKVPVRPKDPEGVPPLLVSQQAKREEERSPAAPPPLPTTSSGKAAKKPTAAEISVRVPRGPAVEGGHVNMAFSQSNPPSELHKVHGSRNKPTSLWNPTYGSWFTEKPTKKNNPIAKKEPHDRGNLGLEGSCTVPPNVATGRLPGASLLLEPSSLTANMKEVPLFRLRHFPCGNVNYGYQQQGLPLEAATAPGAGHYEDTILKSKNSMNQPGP

Columns and labels:
[1] = biological target: His-ALK^I1171N/D1203N (Homo sapiens, UniProt Q9UM73, D1203N/I1171N); experiment: ALK I1171N/D1203N compound mutant kinase inhibitory activity assay (HTRF); conditions: read-out: ALK^I1171N/D1203N Enzyme, IC50, ATP 1 µM, enzyme 0.3 nM, 1 hour at 23 °C
[2] = test system: Baf3 EML4-ALK V1^G1202R/L1196M cells; conditions: read-out: BaF3 EML4-ALK^G1102R/L1196M, IC50; 3 days incubation, Cell-Titer Glo
[3] = biological target: His-ALK^G1202R/L1196M (Homo sapiens, UniProt Q9UM73, G1202R/L1196M); experiment: ALK G1202R/L1196M compound mutant kinase inhibitory activity assay (HTRF); conditions: read-out: ALK^G1202R/L1196M Enzyme, IC50, ATP 4 µM, enzyme 0.5 nM, 1 hour at 23 °C
[4] = test system: Baf3 EML4-ALK V1^I1171N/D1203N cells; conditions: read-out: BaF3 EML4-ALK^I1171N/D1203N IC50; 3 days incubation, Cell-Titer Glo

Row | Compound | IC50 [1] [nM] | IC50 [2] [nM] | IC50 [3] [nM] | IC50 [4] [nM]
1 | CCn1nc(C#CC2CCOC2)c2c1-c1cnc(N)c(c1)O[C@H](C)c1cc(F)ccc1-c1nn(C)cc1C2 (stereo partly shown) | < 5 | < 10 | < 5 | < 10
2 | CCn1nc(C#CCN2CCOCC2)c2c1-c1cnc(N)c(c1)O[C@H](C)c1cc(F)ccc1-c1nn(C)cc1C2 | < 5 | < 10 | < 5 | < 10
3 | CCn1nc(C#CC(=O)N2CCCCC2)c2c1-c1cnc(N)c(c1)O[C@H](C)c1cc(F)ccc1-c1nn(C)cc1C2 | < 5 | – | < 5 | –
4 | CCn1nc(C#Cc2cccnc2)c2c1-c1cnc(N)c(c1)O[C@H](C)c1cc(F)ccc1-c1nn(C)cc1C2 | < 5 | – | < 5 | –
5 | CCn1nc(C#CCCC(C)(C)O)c2c1-c1cnc(N)c(c1)O[C@H](C)c1cc(F)ccc1-c1nn(C)cc1C2 | < 5 | < 10 | < 5 | < 10
6 | CCn1nc(C#C[C@@H]2COCCN2)c2c1-c1cnc(N)c(c1)O[C@H](C)c1cc(F)ccc1-c1nn(C)cc1C2 | < 5 | < 10 | < 5 | < 10
7 | CCn1nc(C#CC2CCC(=O)CC2)c2c1-c1cnc(N)c(c1)O[C@H](C)c1cc(F)ccc1-c1nn(C)cc1C2 | < 5 | < 10 | < 5 | < 10
8 | (19R)-3-ethyl-16-fluoro-5-(((2S)-1,4-oxaazacyclohexan-2-yl)ethynyl)-10,1 9-dimethyl-20-oxa-3,4,10,11,23-pentaazapentacyclo[19.3.1.0^2,6.0^8,12.0^13,18]pentacosa-1(25),2(6), 4,8(9),11,13(14),15,17,21(22),23-decaen-22-amine | < 5 | < 10 | < 5 | < 10
9 | (19R)-3-ethyl-16-fluoro-10,19-dimethyl-5-((1-methyl imidazol-4-yl)ethyny 1)-20-oxa-3,4,10,11,23-pentaazapentacyclo[19.3.1.0^8,12.0^13,18.0^2,6]pentacosa-1(25),2(6),4,8(9),1 1,13(18),14,16,21(22),23-decaen-22-amine | < 5 | < 10 | < 5 | < 10
10 | C=C(C)c1nn(CC)c2c1Cc1cn(C)nc1-c1ccc(F)cc1[C@@H](C)Oc1cc-2cnc1N | < 5 | – | < 5 | –
11 | CCn1nc(C#CCCOC)c2c1-c1cnc(N)c(c1)O[C@H](C)c1cc(F)ccc1-c1nn(C)cc1C2 | < 5 | < 10 | < 5 | < 10
12 | CCn1nc(C#CC(=O)NC2CC2)c2c1-c1cnc(N)c(c1)O[C@H](C)c1cc(F)ccc1-c1nn(C)cc1C2 | < 5 | < 10 | < 5 | –
13 | CCn1nc(C#CCC(C)(C)O)c2c1-c1cnc(N)c(c1)O[C@H](C)c1cc(F)ccc1-c1nn(C)cc1C2 | < 5 | < 10 | < 5 | –
14 | CCn1nc(C#CC2COCCN2)c2c1-c1cnc(N)c(c1)O[C@H](C)c1cc(F)ccc1-c1nn(C)cc1C2 (stereo partly shown) | < 5 | < 10 | < 5 | < 10
15 | CCn1nc(C#CC2CCCCN2)c2c1-c1cnc(N)c(c1)O[C@H](C)c1cc(F)ccc1-c1nn(C)cc1C2 (stereo partly shown) | < 5 | < 10 | < 5 | < 10
16 | CCn1nc(C#CC(=O)N2CCOCC2)c2c1-c1cnc(N)c(c1)O[C@H](C)c1cc(F)ccc1-c1nn(C)cc1C2 | < 5 | < 10 | < 5 | < 10
17 | CCn1nc(C#CC2CC(C)(O)C2)c2c1-c1cnc(N)c(c1)O[C@H](C)c1cc(F)ccc1-c1nn(C)cc1C2 (stereo partly shown) | < 5 | < 10 | < 5 | < 10
18 | CCn1nc(C#CCNC)c2c1-c1cnc(N)c(c1)O[C@H](C)c1cc(F)ccc1-c1nn(C)cc1C2 | < 5 | < 10 | < 5 | < 10
19 | CCn1nc(C#Cc2cncn2C)c2c1-c1cnc(N)c(c1)O[C@H](C)c1cc(F)ccc1-c1nn(C)cc1C2 | < 5 | < 10 | < 5 | < 10

Row | Compound | IC50 [1] [nM] | IC50 [2] [nM] | IC50 [3] [nM] | IC50 [4] [nM]
20 | CCn1nc(C#Cc2cnn(CCOC)c2)c2c1-c1cnc(N)c(c1)O[C@H](C)c1cc(F)ccc1-c1nn(C)cc1C2 | < 5 | < 10 | < 5 | < 10
21 | CCn1nc(N=S(C)(C)=O)c2c1-c1cnc(N)c(c1)O[C@H](C)c1cc(F)ccc1-c1nn(C)cc1C2 | < 5 | < 10 | < 5 | –
22 | CCn1nc(C#CC(C)(C)N2CCOCC2)c2c1-c1cnc(N)c(c1)O[C@H](C)c1cc(F)ccc1-c1nn(C)cc1C2 | – | < 10 | < 5 | < 10
23 | CCn1nc(C#CC2CCN(S(C)(=O)=O)CC2)c2c1-c1cnc(N)c(c1)O[C@H](C)c1cc(F)ccc1-c1nn(C)cc1C2 | < 5 | < 10 | < 5 | < 10
24 | CCn1nc(C#Cc2ccc(CO)cn2)c2c1-c1cnc(N)c(c1)O[C@H](C)c1cc(F)ccc1-c1nn(C)cc1C2 | < 5 | < 10 | < 5 | –
25 | CCn1nc(C#CCCCO)c2c1-c1cnc(N)c(c1)O[C@H](C)c1cc(F)ccc1-c1nn(C)cc1C2 | < 5 | < 10 | < 5 | –
26 | CCn1nc(C#CCCO)c2c1-c1cnc(N)c(c1)O[C@H](C)c1cc(F)ccc1-c1nn(C)cc1C2 | < 5 | < 10 | < 5 | –
27 | CCn1nc(C#CC2COCCN2C)c2c1-c1cnc(N)c(c1)O[C@H](C)c1cc(F)ccc1-c1nn(C)cc1C2 (stereo partly shown) | – | < 10 | < 5 | < 10
28 | CCn1nc(C#CCO)c2c1-c1cnc(N)c(c1)O[C@H](C)c1cc(F)ccc1-c1nn(C)cc1C2 | < 5 | < 10 | < 5 | –
29 | CCn1nc(C#CC2CCCNC2)c2c1-c1cnc(N)c(c1)O[C@H](C)c1cc(F)ccc1-c1nn(C)cc1C2 (stereo partly shown) | < 5 | < 10 | < 5 | –
30 | CCn1nc(C#CCn2ccnc2)c2c1-c1cnc(N)c(c1)O[C@H](C)c1cc(F)ccc1-c1nn(C)cc1C2 | < 5 | < 10 | < 5 | –
31 | CCn1nc(C#CC(C)(C)O)c2c1-c1cnc(N)c(c1)O[C@H](C)c1cc(F)ccc1-c1nn(C)cc1C2 | – | < 10 | < 5 | < 10
32 | CCn1nc(C#Cc2ncco2)c2c1-c1cnc(N)c(c1)O[C@H](C)c1cc(F)ccc1-c1nn(C)cc1C2 | < 5 | – | < 5 | –
33 | CCn1nc(C#Cc2cccc(CO)n2)c2c1-c1cnc(N)c(c1)O[C@H](C)c1cc(F)ccc1-c1nn(C)cc1C2 | < 5 | < 10 | < 5 | –
34 | CCn1nc(C#CCN)c2c1-c1cnc(N)c(c1)O[C@H](C)c1cc(F)ccc1-c1nn(C)cc1C2 | < 5 | < 10 | < 5 | –
35 | CCn1nc(C#Cc2ccn(C)n2)c2c1-c1cnc(N)c(c1)O[C@H](C)c1cc(F)ccc1-c1nn(C)cc1C2 | < 5 | – | < 5 | –
36 | CCn1nc(C#CC(O)C(F)(F)F)c2c1-c1cnc(N)c(c1)O[C@H](C)c1cc(F)ccc1-c1nn(C)cc1C2 (stereo partly shown) | < 5 | < 10 | < 5 | –
37 | CCn1nc(C#Cc2csc(N)n2)c2c1-c1cnc(N)c(c1)O[C@H](C)c1cc(F)ccc1-c1nn(C)cc1C2 | – | < 10 | < 5 | –
